Some results for these compounds are left out of this collection, so the calls shown say nothing about other tests.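 Grown in 96-well plates, cells were treated for 48 hours with each compound at five concentrations. Insufficient inhibition: endpoint recorded as highest concentration tested. Abbreviation: GI50, concentration required for 50% inhibition of growth. TGI denotes the concentration required for complete inhibition of growth.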
How the values were obtained:
Assay in all cases: NCI tumour cell line growth inhibition, 48 h
[1] = test system: HT29 colon
[2] = test system: HOP-62 NSCLC
[3] = test system: TK-10 renal
[4] = test system: EKVX NSCLC
[5] = test system: M14 melanoma
[6] = test system: KM12 colon
[7] = test system: OVCAR-3 ovarian
[8] = test system: HCT-116 colon
[9] = test system: RXF 393 renal
[10] = test system: MDA-N
[11] = test system: SF-268 CNS
[12] = test system: OVCAR-8 ovarian
[13] = test system: SN12C renal
[14] = test system: U251 CNS
[15] = test system: MDA-MB-231 breast
[16] = test system: SK-OV-3 ovarian
[17] = test system: PC-3 prostate
[18] = test system: RPMI-8226 leukemia
[19] = test system: K-562 leukemia
[20] = test system: UACC-62 melanoma
[21] = test system: LOX IMVI melanoma
[22] = test system: MALME-3M melanoma
[23] = test system: SK-MEL-5 melanoma
[24] = test system: NCI/ADR-RES ovarian
[25] = test system: SK-MEL-28 melanoma
[26] = test system: OVCAR-5 ovarian
[27] = test system: DU-145 prostate
[28] = test system: SNB-19 CNS
[29] = test system: MCF7 breast
[30] = test system: 786-0 renal
[31] = test system: CAKI-1 renal
[32] = test system: SF-539 CNS
[33] = test system: SR leukemia
[34] = test system: SF-295 CNS
[35] = test system: ACHN renal
[36] = test system: MOLT-4 leukemia
[37] = test system: T-47D breast
[38] = test system: NCI-H23 lung
[39] = test system: SNB-75 CNS
[40] = test system: COLO 205 colon
[41] = test system: CCRF-CEM leukemia
[42] = test system: UACC-257 melanoma
[43] = test system: A549 NSCLC
[44] = test system: HCC-2998 colon
[45] = test system: IGROV1 ovarian
[46] = test system: HL-60(TB) leukemia
[47] = test system: NCI-H226 lung
[48] = test system: HCT-15 colon
[49] = test system: SW-620 colon
[50] = test system: UO-31 renal
[51] = test system: NCI-H522 lung

For `C=C(C)C(O)(C(=O)OC1CN2CCC1CC2)c1cccs1` (configuration not stated), the GI50 [1] was > 100 µM, the TGI [1] was > 100 µM and the GI50 [2] was > 100 µM. The TGI [2] was > 100 µM, the GI50 [3] was > 100 µM and the TGI [3] was > 100 µM. For the same compound, the GI50 [4] was > 100 µM, the TGI [4] was > 100 µM and the GI50 [5] was > 100 µM. For the same compound, the TGI [5] was > 100 µM, the GI50 [6] was > 100 µM and the TGI [6] was > 100 µM. For the same compound, the GI50 [7] was > 100 µM, the TGI [7] was > 100 µM and the GI50 [8] was > 100 µM. For the same compound, the TGI [8] was > 100 µM, the GI50 [9] was > 100 µM and the TGI [9] was > 100 µM. For the same compound, the GI50 [10] was > 100 µM, the TGI [10] was > 100 µM and the GI50 [11] was > 100 µM. For the same compound, the TGI [11] was > 100 µM, the GI50 [12] was > 100 µM and the TGI [12] was > 100 µM. For the same compound, the GI50 [13] was > 100 µM, the TGI [13] was > 100 µM and the GI50 [14] was > 100 µM. The TGI [14] was > 100 µM, the GI50 [15] was > 100 µM and the TGI [15] was > 100 µM. The GI50 [16] was > 100 µM, the TGI [16] was > 100 µM and the GI50 [17] was > 100 µM. For the same compound, the TGI [17] was > 100 µM, the GI50 [18] was > 100 µM and the TGI [18] was > 100 µM. The GI50 [19] was > 100 µM, the TGI [19] was > 100 µM and the GI50 [20] was > 100 µM. The TGI [20] was > 100 µM, the GI50 [21] was > 100 µM and the TGI [21] was > 100 µM. For the same compound, the GI50 [22] was > 100 µM, the TGI [22] was > 100 µM and the GI50 [23] was > 100 µM. For the same compound, the TGI [23] was > 100 µM, the GI50 [24] was > 100 µM and the TGI [24] was > 100 µM. For the same compound, the GI50 [25] was > 100 µM, the TGI [25] was > 100 µM and the GI50 [26] was > 100 µM. The TGI [26] was > 100 µM, the GI50 [27] was > 100 µM and the TGI [27] was > 100 µM. For the same compound, the GI50 [28] was > 100 µM, the TGI [28] was > 100 µM and the GI50 [29] was > 100 µM. The TGI [29] was > 100 µM, the GI50 [30] was > 100 µM and the TGI [30] was > 100 µM. The GI50 [31] was > 100 µM, the TGI [31] was > 100 µM and the GI50 [32] was > 100 µM. For the same compound, the TGI [32] was > 100 µM, the GI50 [33] was > 100 µM and the TGI [33] was > 100 µM. The GI50 [34] was > 100 µM, the TGI [34] was > 100 µM and the GI50 [35] was > 100 µM. The TGI [35] was > 100 µM, the GI50 [36] was > 100 µM and the TGI [36] was > 100 µM. For the same compound, the GI50 [37] was > 100 µM, the TGI [37] was > 100 µM and the GI50 [38] was > 100 µM. For the same compound, the TGI [38] was > 100 µM, the GI50 [39] was > 100 µM and the TGI [39] was > 100 µM. The GI50 [40] was > 100 µM, the TGI [40] was > 100 µM and the GI50 [41] was > 100 µM. The TGI [41] was > 100 µM, the GI50 [42] was > 100 µM and the TGI [42] was > 100 µM. The GI50 [43] was > 100 µM, the TGI [43] was > 100 µM and the GI50 [44] was > 100 µM. The TGI [44] was > 100 µM, the GI50 [45] was > 100 µM and the TGI [45] was > 100 µM. For the same compound, the GI50 [46] was > 100 µM, the TGI [46] was > 100 µM and the GI50 [47] was > 100 µM. The TGI [47] was > 100 µM, the GI50 [48] was > 100 µM and the TGI [48] was > 100 µM. For the same compound, the GI50 [49] was > 100 µM, the TGI [49] was > 100 µM and the GI50 [50] was 75.9 µM. For the same compound, the TGI [50] was > 100 µM, the GI50 [51] was > 100 µM and the TGI [51] was > 100 µM.

From PubChem BioAssay (NCI)
